Here are results for one molecule from ChEMBL document CHEMBL1147692, “Orally active thrombin inhibitors. Part 1: optimization of the P1-moiety” (Bioorg Med Chem Lett, 2006).

In the assay the target is Prothrombin (Homo sapiens, UniProt P00734). Briefly: Inhibition of thrombin.

Turning to `N=C(N)c1ccc(CNC(=O)[C@@H]2C=CCN2C(=O)[C@@H](CC2CCCCC2)NCC(=O)O)s1`, half-maximal inhibition (IC50) required 0.98 nM.
